Binding of CDR-mutated scFvs to a peptide of the spike HR2 region

All variants were tested on one target, the spike HR2 peptide PDVDLGDISGINAS (SARS-CoV-2).

Ab-14 is the parent antibody, in scFv form: VH, then the linker GGGGSGGGGSGGGGS, then VL. The heavy chain is unchanged in all variants.
VH: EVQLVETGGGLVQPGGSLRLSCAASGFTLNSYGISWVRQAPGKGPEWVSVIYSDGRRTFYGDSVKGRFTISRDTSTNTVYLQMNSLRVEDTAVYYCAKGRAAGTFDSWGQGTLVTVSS
VL: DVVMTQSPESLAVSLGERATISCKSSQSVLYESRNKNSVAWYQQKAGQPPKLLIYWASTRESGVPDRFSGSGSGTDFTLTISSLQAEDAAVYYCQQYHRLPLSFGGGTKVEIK

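The parent was found by panning a naive human phage display library on the peptide. The library (AAYL50) carries one to three amino acid substitutions per variant, with no insertions or deletions. The scFvs were displayed on barcoded MATa yeast, the peptide on MATalpha yeast. Mating (16 h, 30 °C) was followed by selection of diploids and sequencing of their barcodes. Scores were corrected for input abundance and mapped to Kd with protein pairs of known affinity run in the same pool. The assay was run in three technical replicates.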

Changes read parent residue, position, new residue, counted from the first residue of the VL shown. Scale: log10 of Kd in nM, estimated from mating counts; low values are strong binders. "n.d." marks a missing value. The strain was present, yet no cells mated with the target were sequenced in that replicate, which points to weak or no binding. Empty control strains, which show no peptide, gave a signal in 18% of pairings with library AAYL50; the median was 4.19 and 95% of these signals were weaker than 2.99. No background was subtracted. Also given: how often the same scFv was detected with the empty control strains, with their mean in brackets. Parent in this assay: reference entry 0.65, copy in this library 1.68.

{"changes": "V39C+T59S+H98S", "log10 Kd (nM) by replicate": "4.29 / n.d. / n.d.", "empty controls": "3 of 9 (3.87)"}
{"changes": "E32T+N35D+W56Y", "log10 Kd (nM) by replicate": "0.70 / 0.97 / 0.86", "empty controls": "1 of 9 (3.88)"}
{"changes": "K36V+W56K+S58W", "log10 Kd (nM) by replicate": "1.11 / 1.00 / 1.02", "empty controls": "1 of 9 (4.08)"}
{"changes": "N35E+T59R+R99K", "log10 Kd (nM) by replicate": "4.84 / 4.05 / 3.38", "empty controls": "1 of 9 (4.17)"}
{"changes": "R34D+A40V+L102K", "log10 Kd (nM) by replicate": "n.d. / n.d. / 5.59", "empty controls": "2 of 9 (4.29)"}
{"changes": "K24H+N35Y+Q95C", "log10 Kd (nM) by replicate": "2.43 / 2.25 / 2.58", "empty controls": "0 of 9"}
{"changes": "K24C+Y31R+S103L", "log10 Kd (nM) by replicate": "4.02 / 2.55 / 3.34", "empty controls": "0 of 9"}
{"changes": "V29H+N37F+Y97P", "log10 Kd (nM) by replicate": "n.d. / n.d. / n.d.", "empty controls": "0 of 9"}
{"changes": "E32H+Q95K+H98F", "log10 Kd (nM) by replicate": "n.d. / n.d. / n.d.", "empty controls": "0 of 9"}
{"changes": "S25C+S58L+R60S", "log10 Kd (nM) by replicate": "n.d. / 3.90 / n.d.", "empty controls": "0 of 9"}
{"changes": "K36Q+R60A+L100N", "log10 Kd (nM) by replicate": "n.d. / 3.86 / n.d.", "empty controls": "2 of 9 (4.18)"}
{"changes": "R34E+Q96Y+L102R", "log10 Kd (nM) by replicate": "n.d. / n.d. / n.d.", "empty controls": "0 of 9"}
{"changes": "R34K+E61H+S103R", "log10 Kd (nM) by replicate": "2.62 / 2.58 / 2.31", "empty controls": "0 of 9"}
{"changes": "V39H+W56N+Q96D", "log10 Kd (nM) by replicate": "0.24 / 0.55 / 0.43", "empty controls": "0 of 9"}
{"changes": "V39Q+T59D+H98Y", "log10 Kd (nM) by replicate": "n.d. / n.d. / n.d.", "empty controls": "0 of 9"}
{"changes": "S62L+Q96A+R99S", "log10 Kd (nM) by replicate": "3.22 / 3.02 / n.d.", "empty controls": "0 of 9"}
{"changes": "Y31G+Y97H+H98A", "log10 Kd (nM) by replicate": "0.29 / 0.59 / 0.48", "empty controls": "0 of 9"}
{"changes": "K24S+S33I+S103Y", "log10 Kd (nM) by replicate": "3.72 / 3.09 / 5.25", "empty controls": "4 of 9 (4.29)"}
{"changes": "L30N+R99Q+S103Q", "log10 Kd (nM) by replicate": "1.17 / 1.34 / 1.35", "empty controls": "4 of 9 (3.72)"}
{"changes": "S38L+Y97V", "log10 Kd (nM) by replicate": "n.d. / n.d. / n.d.", "empty controls": "1 of 9 (2.78)"}

Repeated from above, the 2 best binders with a signal in all replicates:

| changes | log10 Kd (nM) by replicate | empty controls |
|---|---|---|
| V39H+W56N+Q96D | 0.24 / 0.55 / 0.43 | 0 of 9 |
| Y31G+Y97H+H98A | 0.29 / 0.59 / 0.48 | 0 of 9 |

The measurements come from Engelhart et al. 2022 (doi:10.1038/s41597-022-01779-4) through the FLAb antibody collection.